Curated experimental data: intrinsic clearance values

Values as listed in the OPERA 2.9 repository of K. Mansouri.

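OPERA's authors assembled the values from existing databases and did not measure them anew. A listed value is a point estimate from one report or more. How each value was measured is not recorded, so precision varies. A value may pool stereoisomers or salt forms, and the file does not say which form was measured. Some entries may be limits or estimates that an upstream database listed as plain numbers.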

Intrinsic clearance (human, µL/min per 10^6 hepatocytes): higher is faster turnover, and 0 stands for none detected.

| Clint (µL/min/10^6 cells) | structure (SMILES) |
|---|---|
| 0 | CC1=C(Br)C(=O)C(Br)=C/C1=C(\c1ccccc1S(=O)(=O)[O-])c1cc(Br)c(O)c(Br)c1C.[Na+] |
| 17.89 | COc1cccc2c1c(NS(=O)(=O)c1ccc(Cl)s1)nn2Cc1cccc(CNC(=O)[C@H]2COCCN2)c1 |
| 98.2 | c1ccc(Nc2cccc3ccccc23)cc1 |
| 138 | O=c1cc(-c2ccc(O)cc2)oc2cc(O)cc(O)c12 |
| 3.226 | Cc1c2ccccc2c(C)c2c1ccc1ccccc12 |
| 0 | C=C1C[C@]23C[C@@]1(O)CC[C@H]2[C@@]12C=C[C@H](O)[C@@](C)(C(=O)O1)[C@H]2[C@@H]3C(=O)O |
| 56.8 | Oc1ccc(Cc2ccccc2O)cc1 |
| 13.1 | CC1(C)C(=O)NC(=O)N1CO |
| 7.51 | Cc1cccc(Nc2cc(Cl)nc(SCC(=O)O)n2)c1C |
| 0.0143 | CCCCC(CCC)C(=O)O (configuration not stated) |
| 0 | Oc1ccc2ccccc2c1N=Nc1ccccc1 |
| 26 | CCOc1cc2ccccc2oc1=O |
| 20.98 | Oc1cc2ccccc2c2ccccc12 |
| 0 | O=c1ccc2ccccc2o1 |
| 20.56 | Oc1ccc2c(c1)-c1ccccc1C2 |
| 3.152 | CCCCC(CC)COC(=O)CCCCCCCC(=O)OCC(CC)CCCC (configuration not stated) |
| 5.16 | O=C(O)c1cc(/N=N/c2ccc(S(=O)(=O)Nc3ccccn3)cc2)ccc1O |
| 563 | CC(C)OC(=O)C(C)(C)Oc1ccc(C(=O)c2ccc(Cl)cc2)cc1 |
| 172 | C=C(C)[C@@H]1CCC2=CC(=O)C[C@@H](C)[C@]2(C)C1 |
| 10.8 | CC(=O)C(C)=CC1C(C)=CCCC1(C)C (configuration not stated) |
| 139 | O=C1OC[C@H](Cc2cccc(O)c2)[C@H]1Cc1cccc(O)c1 |
| 9.409 | CCC1=C(C)CN(C(=O)NCCc2ccc(S(=O)(=O)NC(=O)N[C@H]3CC[C@H](C)CC3)cc2)C1=O |
| 633 | O=C(OCc1ccccc1)c1ccc(O)cc1 |
| 12 | O=C(Nc1ccc([N+](=O)[O-])cc1Cl)c1cc(Cl)ccc1O |
| 29.1 | CC(=O)CCc1ccc(O)cc1 |
| 16.8 | Cl.Nc1ccn([C@@H]2O[C@H](CO)[C@@H](O)[C@@H]2O)c(=O)n1 |
| 0.383 | CC(c1cc(C(C)(C)C)cc(C(C)(C)C)c1O)c1cc(C(C)(C)C)cc(C(C)(C)C)c1O |
| 1.05 | COc1cc(O)c(C(=O)c2ccccc2)cc1S(=O)(=O)O |
| 21.9 | CC[C@H](C)C(=O)O[C@H]1C[C@@H](C)C=C2C=C[C@H](C)[C@H](CC[C@@H]3C[C@@H](O)CC(=O)O3)[C@H]21 |
| 25.95 | O=[N+]([O-])c1ccc(O)cc1 |
| 5.496 | Oc1ccccc1 |
| 13 | CN(C)CC/C=C1c2ccccc2COc2ccccc21 |
| 5.31 | O=c1[nH]c2ccc(S(=O)CCN3CCC(Cc4ccc(F)cc4)CC3)cc2o1 (configuration not stated) |
| 28.1 | O=C(c1cc(O)c(O)c(O)c1)c1ccc(O)c(O)c1O |
| 8.322 | CN(C)c1ccc(C(=C2C=CC(=[N+](C)C)C=C2)c2ccc(N(C)C)cc2)cc1.[Cl-] |
| 0.5997 | CCOC(C)(C)C |
| 88.8 | Cc1c(C(=O)O)c(O)cc2c1C(=O)c1c(O)c([C@@H]3O[C@H](CO)[C@@H](O)[C@H](O)[C@H]3O)c(O)c(O)c1C2=O |
| 34.74 | O=c1[nH]sc2ccccc12 |
| 49.8 | CCCCC(CC)COC(=O)CC(C(=O)OCC(CC)CCCC)S(=O)(=O)[O-].[Na+] (configuration not stated) |
| 13.12 | CCNc1cccc(C)c1 |
| 823 | CC(=O)OC/C=C(\C)CCC=C(C)C |
| 0.38 | C=CCC(CCC)C(=O)O (configuration not stated) |

A selection of 3 entries from above:

structure (SMILES)	Clint (µL/min/10^6 cells)
CCNc1cccc(C)c1	13.12
Cc1cccc(Nc2cc(Cl)nc(SCC(=O)O)n2)c1C	7.51
Oc1cc2ccccc2c2ccccc12	20.98